Assay results from patent US8722864B2 (Nutek Pharma Ltd., priority 2010, dated 2014).
Like-named read-outs stand apart in the source and are kept apart here.

Settings: rat, tail vein IV, 66.3 μmol/Kg target

Which results are given for acetaminophen?
Acetaminophen Plasma Mean (0.50 h): 25767 nmol/L; Acetaminophen Plasma Mean (1 h): 4823 nmol/L; Acetaminophen Plasma Mean (2 h): 933 nmol/L; Acetaminophen Plasma Mean (4 h): 986 nmol/L
